Target: FcγRI (UniProt P12314)
Assay: plate binding assay, O.D. 650 against antibody concentration (format not described in Example 4)

Sequences of proteins named here, by UniProt entry; tags and fusion partners are left off. Residues count along the entry.
UniProt P12314, 16-288 limits assumed: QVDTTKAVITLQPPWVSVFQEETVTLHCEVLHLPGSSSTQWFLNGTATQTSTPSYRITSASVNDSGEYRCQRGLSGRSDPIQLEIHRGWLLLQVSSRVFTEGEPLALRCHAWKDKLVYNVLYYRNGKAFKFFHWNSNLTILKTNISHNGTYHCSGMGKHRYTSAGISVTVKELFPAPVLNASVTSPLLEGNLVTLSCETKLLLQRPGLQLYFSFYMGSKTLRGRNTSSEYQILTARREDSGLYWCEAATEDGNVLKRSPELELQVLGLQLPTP

EC50 (read off the curve): 90 nM
Substance: LALA (antibody)

Source: patent US20250296982A1
